Experimental data published in paper PMC11335710, “Sitagliptin elevates plasma and CSF incretin levels following oral administration to nonhuman primates: relevance for neurodegenerative disorders” (GeroScience, 2024).

Sequences of proteins named here, by UniProt entry; tags and fusion partners are left off. Residues count along the entry.
UniProt A0A075TEP6, 1-766: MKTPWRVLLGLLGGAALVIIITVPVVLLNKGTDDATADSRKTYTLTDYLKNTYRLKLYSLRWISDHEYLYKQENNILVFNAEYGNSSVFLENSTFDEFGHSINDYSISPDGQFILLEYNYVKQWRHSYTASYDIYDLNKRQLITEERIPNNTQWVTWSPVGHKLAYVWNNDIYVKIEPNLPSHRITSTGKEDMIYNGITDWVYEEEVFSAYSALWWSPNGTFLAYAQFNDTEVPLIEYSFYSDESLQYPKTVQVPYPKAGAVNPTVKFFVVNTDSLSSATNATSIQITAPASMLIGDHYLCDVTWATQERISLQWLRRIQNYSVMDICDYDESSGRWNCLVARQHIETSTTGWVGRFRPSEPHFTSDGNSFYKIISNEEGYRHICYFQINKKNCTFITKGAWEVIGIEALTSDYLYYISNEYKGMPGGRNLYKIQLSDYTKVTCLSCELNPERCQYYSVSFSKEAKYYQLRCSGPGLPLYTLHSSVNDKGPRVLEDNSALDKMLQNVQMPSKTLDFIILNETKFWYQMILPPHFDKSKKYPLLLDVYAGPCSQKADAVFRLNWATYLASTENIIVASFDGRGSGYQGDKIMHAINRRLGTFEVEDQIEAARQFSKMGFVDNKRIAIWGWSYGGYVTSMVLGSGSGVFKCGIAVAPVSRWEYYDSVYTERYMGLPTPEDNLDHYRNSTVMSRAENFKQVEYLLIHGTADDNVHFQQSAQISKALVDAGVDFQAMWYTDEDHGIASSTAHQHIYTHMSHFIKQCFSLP

Molecular target: T1, DPP-4 (Macaca mulatta, UniProt A0A075TEP6)
T1 construct: from tissue; host or cells: plasma of rhesus monkeys dosed orally with sitagliptin
Test: Plasma DPP-4 activity after sitagliptin in NHPs (fluorometric assay)
Type: in vivo
Conditions: 5, 20, 100 mg/kg oral, NHP plasma

**Q.** How did the “Effect on plasma DPP-4 activity” value turn out when N[C@@H](CC(=O)N1CCn2c(nnc2C(F)(F)F)C1)Cc1cc(F)c(F)cc1F [sitagliptin] was run?
**A.** dose- and time-dependent reduction in DPP-4 activity
